According to patent US20110319464A1, “METHODS FOR TREATING BENIGN PROSTATIC HYPERPLASIA” (KISSEI PHARMACEUTICAL CO., LTD., priority 2007, published 2011):
Where “and” joins values, the source holds several entries; their conditions need not be identical. Equal values may be shown once.

What was measured:
[1] = Pharmacokinetic Study on Silodosin (Study US011), once daily for seven days, fed state; conditions: 8 mg once daily 7 days
[2] = Pharmacokinetic Study on Silodosin (Study 98364); type: in vivo, human; conditions: 4 mg once daily 7 days, individual subjects
From the text: The remaining two subjects in each dosing cohort received placebo.

C[C@H](Cc1cc2c(c(C(N)=O)c1)N(CCCO)CC2)NCCOc1ccccc1OCC(F)(F)F [Silodosin]
Blood Plasma Concentrations ([1]; Day 7, 4 h, individual subjects): 17.49 ng/mL and 10.60 ng/mL and 30.50 ng/mL and 36.46 ng/mL and 72.43 ng/mL and 50.08 ng/mL and 30.19 ng/mL and 35.37 ng/mL and 15.51 ng/mL
Blood Plasma Concentrations ([1]; Day 7, 6 h, individual subjects): 10.20 ng/mL and 8.31 ng/mL and 11.39 ng/mL and 19.22 ng/mL and 57.30 ng/mL and 20.36 ng/mL and 11.08 ng/mL and 18.88 ng/mL and 9.47 ng/mL
Blood Plasma Concentrations ([1]; Day 7, 8 h, individual subjects): 9.68 ng/mL and 7.43 ng/mL and 9.77 ng/mL and 14.50 ng/mL and 42.35 ng/mL and 16.57 ng/mL and 8.40 ng/mL and 15.18 ng/mL and 7.79 ng/mL
Blood Plasma Concentrations ([1]; Day 7, 8 h, mean): 14.63 ng/mL
Blood Plasma Concentrations ([1]; Day 7, 16 h, individual subjects): 2.74 ng/mL and 3.93 ng/mL and 4.72 ng/mL and 5.28 ng/mL and 14.85 ng/mL and 12.73 ng/mL and 3.81 ng/mL and 6.12 ng/mL and 2.33 ng/mL
Blood Plasma Concentrations ([1]; Day 7, 16 h, mean): 6.28 ng/mL
Blood Plasma Concentrations ([1]; Day 7, 24 h, individual subjects): 1.91 ng/mL and 3.91 ng/mL and 3.88 ng/mL and 4.38 ng/mL and 11.65 ng/mL and 9.92 ng/mL and 3.42 ng/mL and 6.89 ng/mL and 1.72 ng/mL
Blood Plasma Concentrations ([1]; Day 7, 24 h, mean): 5.30 ng/mL
Blood Plasma Concentrations ([1]; time 0.0 h (Day 1), individual subjects): 0.00 ng/mL
Blood Plasma Concentrations ([1]; time 0.0 h (Day 1), mean): 0.00 ng/mL
Blood Plasma Concentrations ([1]; time 0.3 h, individual subjects): 2.27 ng/ml and 0.00 ng/ml (7×) and 1.47 ng/ml
Blood Plasma Concentrations ([1]; time 0.3 h, mean): 0.42 ng/mL
Blood Plasma Concentrations ([1]; time 0.5 h, individual subjects): 28.23 ng/mL and 8.54 ng/mL and 5.00 ng/mL and 5.01 ng/mL and 6.16 ng/mL and 1.71 ng/mL and 51.16 ng/mL and 13.85 ng/mL and 0.00 ng/mL
Blood Plasma Concentrations ([1]; time 0.5 h, mean): 13.30 ng/mL
Blood Plasma Concentrations ([1]; time 1.0 h, individual subjects): 65.47 ng/mL and 19.61 ng/mL and 43.31 ng/mL and 57.51 ng/mL and 55.35 ng/mL and 32.22 ng/mL and 83.89 ng/mL and 42.13 ng/mL and 9.29 ng/mL
Blood Plasma Concentrations ([1]; time 1.0 h, mean): 45.42 ng/mL
Blood Plasma Concentrations ([1]; time 1.5 h, individual subjects): 64.19 ng/mL and 32.61 ng/mL and 70.27 ng/mL and 44.48 ng/mL and 65.65 ng/mL and 60.05 ng/mL and 101.60 ng/mL and 44.81 ng/mL and 44.23 ng/mL
Blood Plasma Concentrations ([1]; time 1.5 h, mean): 58.65 ng/mL
Blood Plasma Concentrations ([1]; time 2.0 h, individual subjects): 54.56 ng/mL and 37.94 ng/mL and 59.01 ng/mL and 28.65 ng/mL and 66.47 ng/mL and 73.38 ng/mL and 83.90 ng/mL and 32.81 ng/mL and 54.51 ng/mL
Blood Plasma Concentrations ([1]; time 3.0 h, individual subjects): 25.30 ng/mL and 62.68 ng/mL and 26.08 ng/mL and 23.58 ng/mL and 57.85 ng/mL and 58.16 ng/mL and 50.53 ng/mL and 16.72 ng/mL and 63.97 ng/mL
Blood Plasma Concentrations ([1]; time 4.0 h, individual subjects): 17.15 ng/mL and 15.01 ng/mL and 13.52 ng/mL and 17.81 ng/mL and 40.28 ng/mL and 50.39 ng/mL and 29.05 ng/mL and 11.26 ng/mL and 47.45 ng/mL
Blood Plasma Concentrations ([1]; time 4.0 h, mean): 26.88 ng/mL
Blood Plasma Concentrations ([1]; time 6.0 h, individual subjects): 9.28 ng/mL and 5.62 ng/mL and 7.97 ng/mL and 9.94 ng/mL and 21.95 ng/mL and 25.09 ng/mL and 15.44 ng/mL and 5.48 ng/mL and 36.53 ng/mL
Blood Plasma Concentrations ([1]; time 6.0 h, mean): 15.26 ng/mL
Blood Plasma Concentrations ([1]; time 8.0 h, individual subjects): 7.74 ng/mL and 4.39 ng/mL and 6.60 ng/mL and 6.78 ng/mL and 16.78 ng/mL and 20.37 ng/mL and 9.54 ng/mL and 3.51 ng/mL and 24.21 ng/mL
Blood Plasma Concentrations ([1]; time 8.0 h, mean): 11.10 ng/mL
Blood Plasma Concentrations ([1]; time 12.0 h, individual subjects): 3.94 ng/mL and 2.67 ng/mL and 4.38 ng/mL and 5.42 ng/mL and 8.57 ng/mL and 16.07 ng/mL and 4.83 ng/mL and 1.60 ng/mL and 13.24 ng/mL
Blood Plasma Concentrations ([1]; time 12.0 h, mean): 6.75 ng/mL
Blood Plasma Concentrations ([1]; time 16.0 h, individual subjects): 2.79 ng/mL and 1.66 ng/mL and 2.94 ng/mL and 3.19 ng/mL and 5.41 ng/mL and 12.17 ng/mL and 4.20 ng/mL and 0.95 ng/mL and 9.18 ng/mL
Blood Plasma Concentrations ([1]; time 16.0 h, mean): 4.72 ng/mL
Blood Plasma Concentrations ([1]; time 24.0 h, individual subjects): 1.27 ng/mL and 1.72 ng/mL and 2.80 ng/mL and 2.39 ng/mL and 4.27 ng/mL and 9.38 ng/mL and 3.48 ng/mL and 0.56 ng/mL and 6.96 ng/mL
Blood Plasma Concentrations ([1]; time 24.0 h, mean): 3.65 ng/mL
Blood Plasma Concentrations ([1]; time 48.0 h, individual subjects): 1.72 ng/mL and 2.20 ng/mL and 3.37 ng/mL and 3.35 ng/mL and 2.67 ng/mL and 12.14 ng/mL and 2.71 ng/mL and 1.07 ng/mL and 8.23 ng/mL
Blood Plasma Concentrations ([1]; time 48.0 h, mean): 4.16 ng/mL
Blood Plasma Concentrations ([1]; time 72.0 h, individual subjects): 3.12 ng/mL and 5.69 ng/mL and 2.58 ng/mL and 3.03 ng/mL and 3.72 ng/mL and 3.84 ng/mL and 3.39 ng/mL and 11.41 ng/mL and 7.41 ng/mL
Blood Plasma Concentrations ([1]; time 72.0 h, mean): 4.91 ng/mL
Blood Plasma Concentrations ([1]; time 96.0 h, individual subjects): 3.55 ng/mL and 8.26 ng/mL and 2.86 ng/mL and 1.92 ng/mL and 3.32 ng/mL and 3.43 ng/mL and 3.78 ng/mL and 11.18 ng/mL and 4.50 ng/mL
Blood Plasma Concentrations ([1]; time 96.0 h, mean): 4.76 ng/mL
Blood Plasma Concentrations ([1]; time 120.0 h, individual subjects): 1.75 ng/mL and 8.32 ng/mL and 2.44 ng/mL and 2.09 ng/mL and 3.42 ng/mL and 4.47 ng/mL and 4.71 ng/mL and 12.89 ng/mL and 6.05 ng/mL
Blood Plasma Concentrations ([1]; time 120.0 h, mean): 5.13 ng/mL
Blood Plasma Concentrations ([1]; time 144.0 h (Day 7), individual subjects): 1.95 ng/mL and 6.99 ng/mL and 2.40 ng/mL and 1.90 ng/mL and 4.15 ng/mL and 3.94 ng/mL and 4.87 ng/mL and 15.77 ng/mL and 8.04 ng/mL
Blood Plasma Concentrations ([1]; time 144.0 h (Day 7), mean): 5.56 ng/mL
Blood Plasma Concentrations ([1]; time 144.3 h, individual subjects): 1.60 ng/mL and 9.65 ng/mL and 2.44 ng/mL and 2.00 ng/mL and 9.25 ng/mL and 3.64 ng/mL and 13.11 ng/mL and 7.98 ng/mL
Blood Plasma Concentrations ([1]; time 144.5 h, individual subjects): 11.63 ng/mL and 14.52 ng/mL and 25.23 ng/mL and 2.01 ng/mL and 40.90 ng/mL and 21.98 ng/mL and 5.69 ng/mL and 16.93 ng/mL and 56.28 ng/mL
Blood Plasma Concentrations ([1]; time 144.5 h, mean): 21.69 ng/mL
Blood Plasma Concentrations ([1]; time 145.0 h, individual subjects): 41.51 ng/mL and 24.58 ng/mL and 72.25 ng/mL and 12.58 ng/mL and 46.27 ng/mL and 62.96 ng/mL and 26.49 ng/mL and 113.90 ng/mL and 103.20 ng/mL
Blood Plasma Concentrations ([1]; time 145.0 h, mean): 55.97 ng/mL
Blood Plasma Concentrations ([1]; time 145.5 h, individual subjects): 65.51 ng/mL and 32.58 ng/mL and 63.27 ng/mL and 35.49 ng/mL and 39.01 ng/mL and 55.57 ng/mL and 63.87 ng/mL and 129.20 ng/mL and 127.00 ng/mL
Blood Plasma Concentrations ([1]; time 146.0 h, individual subjects): 54.34 ng/mL and 45.40 ng/mL and 56.03 ng/mL and 42.13 ng/mL and 30.68 ng/mL and 62.78 ng/mL and 62.92 ng/mL and 106.10 ng/mL and 113.80 ng/mL
Blood Plasma Concentrations ([1]; time 147.0 h, individual subjects): 52.40 ng/mL and 51.86 ng/mL and 33.38 ng/mL and 35.86 ng/mL and 17.49 ng/mL and 47.15 ng/mL and 53.17 ng/mL and 88.84 ng/mL and 61.25 ng/mL
Blood Plasma Concentrations ([1]; time 147.0 h, mean): 49.04 ng/mL
Blood Plasma Concentrations ([1]; time 148.0 h, individual subjects): 30.19 ng/mL and 35.37 ng/mL and 15.51 ng/mL and 17.49 ng/mL and 10.60 ng/mL and 30.50 ng/mL and 36.46 ng/mL and 72.43 ng/mL and 50.08 ng/mL
Blood Plasma Concentrations ([1]; time 148.0 h, mean): 33.18 ng/mL
Blood Plasma Concentrations ([1]; time 150.0 h, individual subjects): 11.08 ng/mL and 18.88 ng/mL and 9.47 ng/mL and 10.20 ng/mL and 8.31 ng/mL and 11.39 ng/mL and 19.22 ng/mL and 57.30 ng/mL and 20.36 ng/mL
Blood Plasma Concentrations ([1]; time 150.0 h, mean): 18.47 ng/mL
Blood Plasma Concentrations ([1]; time 152.0 h, individual subjects): 8.40 ng/mL and 15.18 ng/mL and 7.79 ng/mL and 9.68 ng/mL and 7.43 ng/mL and 9.77 ng/mL and 14.50 ng/mL and 42.35 ng/mL and 16.57 ng/mL
Blood Plasma Concentrations ([2]; Day 7, 0 h (t0)): 4.64 ng/mL and 6.03 ng/mL and 6.36 ng/mL and 2.77 ng/mL and 3.35 ng/mL
Blood Plasma Concentrations ([2]; Day 7, 0.25 h): 4.89 ng/mL and 5.28 ng/mL and 7.06 ng/mL and 2.76 ng/mL and 3.35 ng/mL
Blood Plasma Concentrations ([2]; Day 7, 0.5 h): 4.51 ng/mL and 5.10 ng/mL and 11.82 ng/mL and 3.49 ng/mL and 2.93 ng/mL
Blood Plasma Concentrations ([2]; Day 7, 1 h): 15.95 ng/mL and 29.55 ng/mL and 31.27 ng/mL and 13.96 ng/mL and 15.35 ng/mL
Blood Plasma Concentrations ([2]; Day 7, 2 h): 37.80 ng/mL and 39.99 ng/mL and 20.57 ng/mL and 23.58 ng/mL
Blood Plasma Concentrations ([2]; Day 7, 3 h): 16.81 ng/mL and 24.30 ng/mL and 12.39 ng/mL and 14.33 ng/mL
Blood Plasma Concentrations ([2]; Day 7, 4 h): 13.36 ng/mL and 15.36 ng/mL and 8.36 ng/mL and 11.22 ng/mL
Blood Plasma Concentrations ([2]; Day 7, 5 h): 11.12 ng/mL and 12.59 ng/mL and 7.29 ng/mL and 7.42 ng/mL
Blood Plasma Concentrations ([2]; Day 7, 6 h): 8.57 ng/mL and 8.60 ng/mL and 4.72 ng/mL and 5.52 ng/mL
Blood Plasma Concentrations ([2]; Day 7, 8 h): 6.58 ng/mL and 6.13 ng/mL and 4.58 ng/mL and 3.83 ng/mL
Blood Plasma Concentrations ([2]; Day 7, 12 h): 4.54 ng/mL and 4.46 ng/mL and 4.01 ng/mL and 2.09 ng/mL and 1.44 ng/mL
Blood Plasma Concentrations ([2]; Day 7, 24 h): 2.02 ng/mL and 3.38 ng/mL and 2.98 ng/mL and 1.15 ng/mL and 0.50 ng/mL
